The values that follow come from ChEMBL document CHEMBL1221249, “Synthesis and in vitro binding studies of piperazine-alkyl-naphthamides: impact of homology and sulphonamide/carboxamide bioisosteric replacement on the affinity for 5-HT1A, alpha2A, D4.2, D3 and D2L receptors” (Bioorg Med Chem Lett, 2010).

The target in assay [1] is 5-hydroxytryptamine receptor 1A (Homo sapiens) (UniProt P08908). In words: Displacement of [3H]MK912 from human alpha2A receptor after 60 mins. (In general: In a radioligand displacement assay an active substance lowers the binding of a labelled ligand.)
For assay [2], the target named is D(4) dopamine receptor (Homo sapiens) (UniProt P21917). The experiment in a line: Displacement of [3H]8OH-DPAT from human 5HT1A receptor after 60 mins.

Turning to `COc1ccccc1N1CCN(CCCCCCNC(=O)c2ccc3ccccc3c2)CC1`, the Ki was determined as 0.00615 µM in assay [1] and 0.102 µM in assay [2].

Usually Ki stands for a dissociation constant, usually derived from enzyme kinetics or from competition with a known ligand.
